Reference: ChEMBL document CHEMBL1146126 (Bioorg Med Chem Lett, 2006)

Key:
Details in all cases: route subcutaneous
Rattus norvegicus [1] = assay: Increase in cortical content at 3 mg/kg, sc 28 days post dose in ovariectomized osteopenic rat; type: functional
Rattus norvegicus [2] = assay: Increase in cortical thickness at 1 mg/kg, sc 28 days post dose in ovariectomized osteopenic rat; type: functional
Rattus norvegicus [3] = assay: Increase in total bone content at 1 mg/kg, sc 28 days post dose in ovariectomized osteopenic rat; type: functional, Bone element
Rattus norvegicus [4] = assay: Increase in total bone density at 3 mg/kg, sc 28 days post dose in ovariectomized osteopenic rat; type: functional
Rattus norvegicus [5] = assay: Increase in cortical area at 1 mg/kg, sc 28 days post dose in ovariectomized osteopenic rat; type: functional
Rattus norvegicus [6] = assay: Increase in total bone content at 3 mg/kg, sc 28 days post dose in ovariectomized osteopenic rat; type: functional
Rattus norvegicus [7] = assay: Increase in cortical content at 1 mg/kg, sc 28 days post dose in ovariectomized osteopenic rat; type: functional
Rattus norvegicus [8] = assay: Increase in cortical thickness at 3 mg/kg, sc 28 days post dose in ovariectomized osteopenic rat; type: functional
Rattus norvegicus [9] = assay: Increase in cortical area at 3 mg/kg, sc 28 days post dose in ovariectomized osteopenic rat; type: functional

Compound O=C(O)c1ccc(CCCN2C(=O)CC[C@@H]2CC[C@@H](O)Cc2cccc(C(F)(F)F)c2)s1 has an Activity (Rattus norvegicus [1]) of 43.27%, an Activity (Rattus norvegicus [2]) of 52.69% and an Activity (Rattus norvegicus [3]) of 20.59%. The Activity (Rattus norvegicus [4]) was 26.36%, the Activity (Rattus norvegicus [5]) was 34.31% and the Activity (Rattus norvegicus [6]) was 23.72%. The Activity (Rattus norvegicus [7]) was 35.76%, the Activity (Rattus norvegicus [8]) was 62.57% and the Activity (Rattus norvegicus [9]) was 41.77%.
